Laboratory results taken from PubChem BioAssay (NCI).
Only a part is listed here, and it is no random draw. Some compounds were tested as several samples or in several runs, with calls that do not always agree. Activity calls are given as the source filed them. Rule as the data show it: active = growth inhibition above about 70%; inactive = the rest.

Assay: NCI Yeast Anticancer Drug Screen. Data for the rad52 strain (AID 147);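 also: 0% = growth of vehicle-treated control cultures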
Details: S. cerevisiae rad52 mutant growth inhibition, active compounds read high
Description: Growth inhibition of yeast strains with defined genetic alterations is measured as a screen for potential anti-cancer activity. Selected strains with alterations in DNA damage repair or cell cycle control were exposed to compounds and growth inhibition was measured relative to vehicle treated controls. The strain used in this assay is rad52

## ClCCN1CCCCC1CCl (stereo not given)
At 1.2 µM
  growth inhibition: inactive: 0%
At 3.7 µM
  growth inhibition: inactive: 4%
At 11.0 µM
  growth inhibition: inactive: 24%
At 33.0 µM
  growth inhibition: active: 81%
At 100.0 µM
  growth inhibition: active: 95%

## Cc1ccc([N+](=O)[O-])c(C[N+](C)(CCCl)CCCl)c1
At 1.2 µM
  growth inhibition: inactive: 19%
At 3.7 µM
  growth inhibition: inactive: 34%
At 11.0 µM
  growth inhibition: active: 85%
At 33.0 µM
  growth inhibition: active: 94%
At 100.0 µM
  growth inhibition: active: 95%

## COc1ccc(C[N+](C)(CCCl)CCCl)c([N+](=O)[O-])c1
At 1.2 µM
  growth inhibition: inactive: 26%
At 3.7 µM
  growth inhibition: inactive: 34%
At 11.0 µM
  growth inhibition: inactive: 53%
At 33.0 µM
  growth inhibition: inactive: 69%
At 100.0 µM
  growth inhibition: active: 74%

## COc1ccc([N+](=O)[O-])c(C[N+](C)(CCCl)CCCl)c1
At 1.2 µM
  growth inhibition: inactive: -11%
At 3.7 µM
  growth inhibition: inactive: -17%
At 11.0 µM
  growth inhibition: inactive: 10%
At 33.0 µM
  growth inhibition: active: 71%
At 100.0 µM
  growth inhibition: active: 92%

## Cn1cnc([N+](=O)[O-])c1C[N+](C)(CCCl)CCCl
At 1.2 µM
  growth inhibition: inactive: -8%
At 3.7 µM
  growth inhibition: inactive: 9%
At 11.0 µM
  growth inhibition: inactive: 61%
At 33.0 µM
  growth inhibition: active: 83%
At 100.0 µM
  growth inhibition: active: 91%
